Reference: ChEMBL document CHEMBL5608239, “Structure, Function, and Activity of Small Molecule and Peptide Inhibitors of Protein Arginine Methyltransferase 1” (J Med Chem, 2024)

Protein sequences, listed by entry. Tags and fused reporters are not part of them.
UniProt Q99873, whole entry: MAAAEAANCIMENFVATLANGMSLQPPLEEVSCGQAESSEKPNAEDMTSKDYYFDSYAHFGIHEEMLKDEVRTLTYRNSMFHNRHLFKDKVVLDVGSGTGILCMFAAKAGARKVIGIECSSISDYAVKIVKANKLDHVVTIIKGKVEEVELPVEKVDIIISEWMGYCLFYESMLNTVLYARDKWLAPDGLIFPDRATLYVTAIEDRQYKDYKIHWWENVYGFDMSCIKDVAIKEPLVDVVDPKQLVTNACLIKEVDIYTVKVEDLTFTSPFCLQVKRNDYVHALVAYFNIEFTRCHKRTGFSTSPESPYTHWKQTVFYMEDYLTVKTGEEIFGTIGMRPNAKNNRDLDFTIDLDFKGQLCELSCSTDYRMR

Assays:
[1] = target: T1, Protein arginine N-methyltransferase 1 (Homo sapiens, UniProt Q99873); test: Inhibition of recombinant C-terminal GST-tagged PRMT1 (unknown origin)
[2] = target: T1, Protein arginine N-methyltransferase 1; test: Inhibition of 6His-tagged human recombinant PRMT1 using Histone H4 as substrate

IC50 [1]: 1630 nM
IC50 [2]: 3700 nM
SMILES: Nc1ncnc2c1ncn2[C@@H]1O[C@H](C[C@@H](N)CC[C@H](N)C(=O)O)[C@@H](O)[C@H]1O [SINEFUNGIN]
